Values of other authors as cited in patent publication US6359015B1, “Method for antagonizing inhibition effects of alcohol on cell adhesion” (The United States of America as represented by the …, priority 2000, dated 2002).

Details: published or calculated from molecular weight and density at 20° C.; cited from earlier work

In the case of 1-butanol, the Vm molar volume is given as 92 mL/mol.
